Data as given in ChEMBL document CHEMBL5241098, “Progress in the development of small molecular inhibitors of the Bruton's tyrosine kinase (BTK) as a promising cancer therapy” (Bioorg Med Chem, 2021).

Assays:
Homo sapiens [1] = organism: Homo sapiens; test: Selectivity index, ratio for inhibition of FGR (unknown origin) to competitive inhibition of recombinant human BTK
Homo sapiens [2] = organism: Homo sapiens; test: Selectivity index, ratio for inhibition of HCK (unknown origin) to competitive inhibition of recombinant human BTK
Homo sapiens [3] = organism: Homo sapiens; test: Selectivity index, ratio for inhibition of EGFR (unknown origin) to competitive inhibition of recombinant human BTK

Ratio (Homo sapiens [1]): < 50
Ratio (Homo sapiens [2]): < 50
Ratio (Homo sapiens [3]): < 50
Structure (SMILES): C=C(Cl)C(=O)N1CCC(n2nc(-c3ccc(Oc4ccccc4)cc3)c3c(N)ncnc32)CC1
